Measured affinities in a library of Ab-14 light chain variants

Target peptide (SARS-CoV-2 spike, HR2 region): PDVDLGDISGINAS

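Designed CDR sequences, proposed from the first random library and measured here. Group labels follow the data file (Ctrl: baseline library sampled from a position-specific scoring matrix, with some repeated check sequences; GP: Gaussian process model; HC: hill climbing; Gen: genetic algorithm; Gibbs: Gibbs sampling; a sequence that several methods proposed may carry one label only). The assay is AlphaSeq: two haploid yeast populations carry antibody and antigen on their surface. Binding brings cells together so that they mate, and sequencing counts the barcode pairs among the diploids. Read counts were normalised to the haploid input and turned into Kd by a linear fit to BCL2-family pairs of known affinity, for each replicate. There are six technical replicates.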

Each scFv is VH, the linker GGGGSGGGGSGGGGS, VL, as in the parent Ab-14, and differs from it in the CDRs of the light chain only.
VH: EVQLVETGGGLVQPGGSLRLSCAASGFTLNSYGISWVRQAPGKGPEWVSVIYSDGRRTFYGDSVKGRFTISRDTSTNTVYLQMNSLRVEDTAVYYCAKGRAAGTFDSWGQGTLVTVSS
VL: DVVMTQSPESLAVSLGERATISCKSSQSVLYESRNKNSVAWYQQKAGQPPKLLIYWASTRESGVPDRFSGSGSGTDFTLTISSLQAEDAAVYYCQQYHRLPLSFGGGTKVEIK

Each variant is given by its three light chain CDRs, as the data file delimits them; those of the parent are KSSQSVLYESRNKNSVA, WASTRES, QQYHRLPLS. This list holds designs with at most six substitutions. Kd is apparent (estimated from mating counts) and averaged on the log scale over replicates with a signal. Smaller is tighter. A pair that was not seen in any replicate is written "nd"; this usually means weak binding, but a binder can also be missed. In the paper, a design with two or fewer of six values counts as a poor binder.

* KVSQSHLYESRNKNSVA, DASTRLS, QQYHRLPLS [GP_Gen] = 1.2 nM (6 of 6 replicates; controls 1 of 18)
* KLSQSELYESRNKNNVA, EASTRED, QQYHRLPLS [GP_Gen] = 300 pM (6 of 6 replicates; controls 0 of 18)
* KSSQSVMYESRNKNSVA, YASTRES, QQYHRLPLS [Ctrl] = 9.5 nM (6 of 6 replicates; controls 0 of 18)
* KSSISWLYESRNKNSVA, AASTRES, QQYHRLPLS [GP_HC] = 2.0 nM (6 of 6 replicates; controls 0 of 18)
* KSQQSQEYESRNKNSVA, HASTRED, QQYHCLPLS [GP_HC] = 13 nM (6 of 6 replicates; controls 1 of 18)
* KLQQSQGYESRNKNSVA, NASQRES, QQYHRLPLS [GP_Gen] = 540 pM (6 of 6 replicates; controls 1 of 18)
* KSSQSVGYESRDRNCVA, WASTRES, QQYHRLPCS [Ctrl] = nd (0 of 6 replicates; controls 0 of 18)
* KSSDSVLYESLNKNSVA, WASTRQS, QQYHRLPLS [Ctrl] = 330 nM (5 of 6 replicates; controls 0 of 18)
* KSQQSVLYESRQFNSVA, WASTRES, QQYHRLPLS [Ctrl] = 340 nM (2 of 6 replicates; controls 1 of 18)
* KLSQSVLYESGNKNSVA, HASTRED, QQYHRLPLS [GP_HC] = 590 pM (6 of 6 replicates; controls 0 of 18)
* KKSQSVLYESRNGNSVA, WASTRES, QQYHRLPLS [Ctrl] = nd (0 of 6 replicates; controls 1 of 18)
* KHEEGVLYESRNKNSVA, EGSTRES, QQYHRLPLS [GP_Gibbs] = 1.6 nM (6 of 6 replicates; controls 0 of 18)
* KLMYLVLYESRNKNSVA, NASTREQ, QQYHRLPLS [GP_Gibbs] = 45 nM (6 of 6 replicates; controls 0 of 18)
* KSSQSVRYESRNKNNVA, YASTRES, QQYHRLPLM [Ctrl] = 770 nM (4 of 6 replicates; controls 0 of 18)
* HLSWSVLYESRNKNSVA, NASTRES, QQYHRLPLS [GP_HC] = 860 pM (6 of 6 replicates; controls 0 of 18)
* KLSQSMLYESRNKNSVA, NASTRES, QCYHRLPLS [GP_Gen] = 3.5 nM (6 of 6 replicates; controls 3 of 18)
* KSSQNVLYDSRSRNSVA, WASTRES, QQYHRLPLS [Ctrl] = 27 nM (4 of 6 replicates; controls 0 of 18)
* HLSQSELYESRNKNSVA, NASTRES, QQYHRLPLS [GP_Gen] = 930 pM (6 of 6 replicates; controls 5 of 18)
* KSSQSVLGESRNKNSLA, WTSTRHS, QQYHRLPGS [Ctrl] = nd (0 of 6 replicates; controls 1 of 18)
* KSSASVDNESRNKNSVA, DASTRES, QQYHRLPLS [GP_HC] = 1.0 nM (6 of 6 replicates; controls 1 of 18)
* KHLQSVLYESRDKNSVA, HASTRED, QQYHRLPLS [GP_HC] = 1.7 nM (6 of 6 replicates; controls 2 of 18)
* KLSMSMLYESRNKNSVA, NASQRES, QQYHRLPLS [GP_Gen] = 1.2 nM (6 of 6 replicates; controls 1 of 18)
* KTSQSVFYESKNKNSVA, WASCRWS, QQYHDLPLS [Ctrl] = 590 nM (2 of 6 replicates; controls 0 of 18)
* KSGQAVLYESRNKNSVA, GASLRES, QQYHRLPLS [GP_HC] = 8.6 nM (6 of 6 replicates; controls 0 of 18)
* KFSQSVLYESRNKNAVA, DASTRES, QQYHRLPLS [GP_HC] = 550 pM (6 of 6 replicates; controls 0 of 18)
* KLSQSWLYESRNKNSVA, GASTRES, QDYHRLPLS [GP_Gen] = 1.0 nM (6 of 6 replicates; controls 2 of 18)
* KYSQSVLYESRNKNSVA, WASTREA, QQYFRLPLS [Ctrl] = 89 nM (6 of 6 replicates; controls 0 of 18)
* KLPQSVLYESRNKNSVA, NASYRES, QQYHRLPLS [GP_Gen] = 820 pM (6 of 6 replicates; controls 0 of 18)
* KSSQSVCYESRNKNSVA, SASTRES, QQYHRLPLS [Ctrl] = 13 nM (6 of 6 replicates; controls 0 of 18)
* KSPQGVLYESRNKNSVA, GASTRES, QQYHRLPLH [GP_HC] = nd (0 of 6 replicates; controls 0 of 18)
* KLSMSVLFESRNKNSVA, NASTREQ, QQYHRLPLS [GP_HC] = 770 pM (6 of 6 replicates; controls 0 of 18)
* KISQSVLMESRNKNSVA, DASTRES, QQYHRLPLS [GP_Gen] = 930 pM (6 of 6 replicates; controls 0 of 18)
* KLSQSVLYESRNKNSVA, EAHTRES, QQYHRLPLS [GP_Gen] = 710 pM (6 of 6 replicates; controls 1 of 18)
* KLSQSVLYESRNKNQVA, EASTRES, QQYHRLPLS [GP_Gen] = 340 pM (6 of 6 replicates; controls 0 of 18)
* KFSQSVDYEDRQKNSVA, NASTRMS, QQYHRLPLS [GP_Gibbs] = 550 pM (6 of 6 replicates; controls 3 of 18)
* KSSQSVLYESRNKNSVA, DASTRES, QQYHILPLS [Ctrl] = 2.9 nM (6 of 6 replicates; controls 0 of 18)
* KLPQSWLYESRNKNSVA, QASTRES, QQYHRLPLS [GP_Gen] = 470 pM (6 of 6 replicates; controls 1 of 18)
* KSSQSVLYESREKNSVA, AASTRES, QQYHRLPLS [Ctrl] = 6.5 nM (6 of 6 replicates; controls 1 of 18)
* KSSQSVLYESRNKNSVA, WASTRWS, QQPHRLPLS [Ctrl] = 22 nM (1 of 6 replicates; controls 0 of 18)
* KQSVSVLQESRNKNSVA, DASTRES, QQYHRLPLS [GP_HC] = 430 pM (6 of 6 replicates; controls 1 of 18)
* KSSQSVLYESRNKNSVA, QASTRES, QLYHRLPLS [Ctrl] = 19 nM (6 of 6 replicates; controls 2 of 18)
* KISQSYLMESRNKNSVA, NASTRCW, QQYHRLPLS [GP_Gibbs] = 970 pM (6 of 6 replicates; controls 2 of 18)
* KLSQSVEYESRNKNNVA, DASTRES, QQYHRLPLS [GP_Gen] = 200 pM (6 of 6 replicates; controls 0 of 18)
* KVSQSQLYESRNKNSVA, NASTRMS, QQYHRLPLS [GP_Gen] = 1.6 nM (6 of 6 replicates; controls 4 of 18)
* KSLTSALYESANKNSVA, WASTREV, QQYHRLPLS [Ctrl] = 140 nM (1 of 6 replicates; controls 0 of 18)

Repeated from above, the 3 best binders with a signal in all replicates:

CDR-L1,CDR-L2,CDR-L3,group,Kd (apparent),seen in,control signals
KLSQSVEYESRNKNNVA,DASTRES,QQYHRLPLS,GP_Gen,200 pM,6 of 6,0 of 18
KLSQSELYESRNKNNVA,EASTRED,QQYHRLPLS,GP_Gen,300 pM,6 of 6,0 of 18
KLSQSVLYESRNKNQVA,EASTRES,QQYHRLPLS,GP_Gen,340 pM,6 of 6,0 of 18

Nonspecific signal, from three strains lacking the peptide, appeared in 4% of pairings of all light chain designs, centred on 430 nM (5% of these signals below 38 nM); values are not corrected for it. The control count says in how many pairings with the empty strains this scFv gave a signal. The parent sequence was in this pool as ten entries: three were never detected, three once, and four in most replicates, with averages from 2.2 nM to 240 nM. The range of this assay differs from that of the first round, and the authors advise against merging the two.

From the AlphaSeq antibody data of Li et al. 2023 (doi:10.1038/s41467-023-39022-2), copy in the FLAb collection.